US6022307A, “Substituted dibenzothiophenes having antiangiogenic activity” (American Cyanamid Company, priority 1999, dated 2000)
Where a name gives a salt, the structure may show the parent alone.

test system: BAE cells; assay: Inhibition of binding of 125I-VEGF 165 to BAE cells; assay type: cell-based, bovine; details: Bos taurus; inhibition of 125I-VEGF 165 binding to BAE cells; read-out: Cell Assay VEGF 165 IC50 BAE

| Structure (SMILES) | IC50 [µg/mL] |
| --- | --- |
| O=C(/C=C/c1cccc(C(F)(F)F)c1)Nc1cc2c(cc1S(=O)(=O)O)-c1cc(S(=O)(=O)O)c(NC(=O)/C=C/c3cccc(C(F)(F)F)c3)cc1S2(=O)=O [Example 38, 3,7-Bis-[3-(3-trifluoromethyl-phenyl)acryloyl-amino]-5,5-dioxo-5H-5^6-dibenzothiophene-2,8-disulfonic acid, disodium salt] | 2.6 |
| CCOP(=O)(O)c1cc2c(cc1NC(=O)c1cc3ccccc3s1)S(=O)(=O)c1cc(NC(=O)c3cc4ccccc4s3)c(P(=O)(OCC)OCC)cc1-2 [Example 23b, [3,7-Bis[(benzo[b]thiophene-2-carbonyl)amino-8-(diethoxyphosphoryl)-5,5-dioxo-5H-5λ^6-dibenzothiophen-2-yl]phosphonic acid monoethyl ester, monosodium salt] | 2.8 |
| O=C(Nc1cc2sc3cc(NC(=O)c4cc5c(s4)-c4cc(Cl)ccc4SC5)c(C(=O)O)cc3c2cc1C(=O)O)c1cc2c(s1)-c1cc(Cl)ccc1SC2 [Example 6, 3,7-Bis[(8-chloro-4H-thieno[3,2-c][1]benzothiopyran-2-carbonyl)-amino]dibenzothio-phene-2,8-dicarboxylic acid, disodium] | 3.7 |
| COc1ccc(/C=C/C(=O)Nc2cc3sc4cc(NC(=O)/C=C/c5ccc(OC)c(OC)c5OC)c(C(=O)O)cc4c3cc2C(=O)O)c(OC)c1OC [Example 11, 3,7-Bis-[3-(2,3,4-trimethoxyphenyl)acryloylamino]dibenzothiophene-2,8-dicarboxylic Acid, disodium salt] | 6.6 |
| COc1ccc(C=CC(=O)Nc2cc3sc4cc(NC(=O)C=Cc5ccc(OC)c(OC)c5Cl)c(C(=O)[O-])cc4c3cc2C(=O)[O-])c(Cl)c1OC.[Na+].[Na+] | 7 |
| CCOP(=O)(O)c1cc2c(cc1NC(=O)c1ccc3c(c1)C(=O)c1ccccc1C3=O)S(=O)(=O)c1cc(NC(=O)c3ccc4c(c3)C(=O)c3ccccc3C4=O)c(P(=O)(O)OCC)cc1-2 [Example 21, [3,7-Bis-[9,10-dioxo-9,10-dihydroanthracene-2-carbonyl)amino]-8-(ethoxyhydroxy-phosphoryl)-5,5-dioxo-5H-5^6-dibenzothiophen-2-yl]phosphonic acid monoethyl ester, disodium salt] | 0.8 |
| O=C(/C=C/c1ccc(-c2ccccc2)cc1)Nc1cc2sc3cc(NC(=O)/C=C/c4ccc(-c5ccccc5)cc4)c(C(=O)O)cc3c2cc1C(=O)O [Example 9, 3,7-Bis-(3-biphenyl-4-ylacryloylamino)dibenzothiophene-2,8-dicarboxylic Acid, disodium salt] | 10 |
| COc1cc(/C=C/C(=O)Nc2cc3sc4cc(NC(=O)/C=C/c5cc(Br)c(O)c(OC)c5)c(C(=O)O)cc4c3cc2C(=O)O)cc(Br)c1O [Example 10, 3,7-Bis-[3-(3-bromo-4-hydroxy-5-methoxy-phenyl)acryloylamino]-dibenzothiophene-2,8-dicarboxylic Acid, disodium] | 10 |
| O=C(Nc1cc2sc3cc(Cl)c(C(=O)[O-])cc3c2cc1C(=O)[O-])c1ccc2cc3ccccc3cc2c1.[Na+].[Na+] [Example 15, 3-[(2-Anthracenylcarbonyl)amino]-7-chlorodibenzothiophene-2,8-dicarboxylic acid, disodium salt] | 4.1 |
| O=C(/C=C/c1ccc([N+](=O)[O-])cc1)Nc1cc2c(cc1S(=O)(=O)O)-c1cc(S(=O)(=O)O)c(NC(=O)/C=C/c3ccc([N+](=O)[O-])cc3)cc1S2(=O)=O [Example 25, 3,7-Bis-[3-(4-nitrophenyl)-acryloylamino]-5,5-dioxo-5H-5^6-dibenzothiophene-2,8-disulfonic acid, disodium salt] | 0.36 |

Now from value to compound:

| IC50 [µg/mL] | Structure (SMILES) |
| --- | --- |
| 0.32 | O=C(C=Cc1ccc(-c2ccccc2)cc1)Nc1cc2c(cc1S(=O)(=O)O)-c1cc(S(=O)(=O)O)c(NC(=O)C=Cc3ccc(-c4ccccc4)cc3)cc1S2(=O)=O [Example 24, 3,7-Bis-[3-(4-phenylphenyl)acryloylamino]-5,5-dioxo-5H-5λ^6-dibenzothiophene-2,8-disulfonic acid, disodium salt] |
| 0.6 | COc1ccc2cc(C(=O)Nc3cc4c(cc3S(=O)(=O)O)-c3cc(S(=O)(=O)O)c(NC(=O)c5cc6ccc(OC)cc6oc5=O)cc3S4(=O)=O)c(=O)oc2c1 [Example 47, 3,7-Bis-[(7-methoxy-2-oxo-benzopyran-3-yl)-carbonylamino]-5,5-dioxo-5H-5^6-dibenzothiophene-2,8-disulfonic acid, disodium salt] |
| 0.37 | O=C(/C=C/c1cccc(O)c1)Nc1cc2c(cc1S(=O)(=O)O)-c1cc(S(=O)(=O)O)c(NC(=O)/C=C/c3cccc(O)c3)cc1S2(=O)=O [Example 31, 3,7-Bis-[(E)-3-(3-hydroxy-phenyl)acryloylamino]-5,5-dioxo-5H-5^6-dibenzothiophene-2,8-disulfonic acid, disodium] |
| 0.74 | COc1ccc(C(=O)Nc2cc3c(cc2S(=O)(=O)O)-c2cc(S(=O)(=O)O)c(NC(=O)c4ccc(OC)cc4)cc2S3(=O)=O)cc1 [Example 50, 3,7-Bis-(4-methoxybenzoyl-amino)-5,5-dioxo-5H-5^6-dibenzothiophene-2,8-disulfonic acid, disodium salt] |
| 0.3 | O=Cc1ccc(/C=C/C(=O)Nc2cc3c(cc2S(=O)(=O)O)-c2cc(S(=O)(=O)O)c(NC(=O)/C=C/c4ccc(C=O)cc4)cc2S3(=O)=O)cc1 [Example 29, 3,7-Bis-[3-(4-formylphenyl)-acryloylamino]-5,5-dioxo-5H-5^6-dibenzothiophene-2,8-disulfonic acid, disodium salt] |
| 0.2 | O=C(Nc1ccc(C(=O)Nc2cc3c(cc2S(=O)(=O)O)-c2cc(S(=O)(=O)O)c(NC(=O)c4ccc(NC(=O)c5ccccc5)cc4)cc2S3(=O)=O)cc1)c1ccccc1 [Example 60, 3,7-Bis-(4-benzoylaminobenzoylamino)-5,5-dioxo-5H-5^6-dibenzothiophene-2,8-disulfonic acid, disodium salt] |
| 10 | CCOc1cc2ccccc2cc1C(=O)Nc1cc2c(cc1S(=O)(=O)O)-c1cc(S(=O)(=O)O)c(NC(=O)c3cc4ccccc4cc3OCC)cc1S2(=O)=O [Example 53, 3,7-Bis-(3-ethoxy-naphthalen-2-ylcarbonylamino)-5,5-dioxo-5H-5^6-dibenzothiophene-2,8-disulfonic acid, disodium salt] |
| 1.4 | COc1ccc(C(=O)Nc2cc3c(cc2S(=O)(=O)O)-c2cc(S(=O)(=O)O)c(NC(=O)c4ccc(OC)cc4OC)cc2S3(=O)=O)c(OC)c1 [Example 51, 3,7-Bis-(2,4-dimethoxybenzoyl-amino)-5,5-dioxo-5H-5^6-dibenzothiophene-2,8-disulfonic acid disodium salt] |
| 0.95 | O=C(/C=C/c1ccncc1)Nc1cc2c(cc1S(=O)(=O)O)-c1cc(S(=O)(=O)O)c(NC(=O)/C=C/c3ccncc3)cc1S2(=O)=O [Example 28, 5,5-Dioxo-3,7-bis-(3-pyridin-4-ylacryloylamino)-5H-5^6-dibenzothiophene-2,8-disulfonic acid, disodium salt] |
| 0.36 | O=C(/C=C/c1ccc(Br)cc1)Nc1cc2c(cc1S(=O)(=O)O)-c1cc(S(=O)(=O)O)c(NC(=O)/C=C/c3ccc(Br)cc3)cc1S2(=O)=O [Example 33, 3,7-Bis-[3-(4-bromophenyl)-acryloylamino]-5,5-dioxo-5H-5^6-dibenzothiophene-2,8-disulfonic acid, disodium salt] |
| 2 | O=C(Nc1cc2c(cc1S(=O)(=O)O)-c1cc(S(=O)(=O)O)c(NC(=O)c3ccc(S(=O)(=O)c4ccccc4)cc3)cc1S2(=O)=O)c1ccc(S(=O)(=O)c2ccccc2)cc1 [Example 52, 5,5-Dioxo-3,7-bis-(4-phenyl-sulfonylbenzoyl-amino)-5H-5^6-dibenzothiophene-2,8-disulfonic acid, disodium salt] |
| 0.33 | O=C(Nc1cc2c(cc1S(=O)(=O)O)-c1cc(S(=O)(=O)O)c(NC(=O)c3ccc4ccccc4c3)cc1S2(=O)=O)c1ccc2ccccc2c1 [Example 57, 3,7-Bis-[(naphthalen-2-yl)carbonylamino]-5,5-dioxo-5H-5^6-dibenzothiophene-2,8-disulfonic acid, disodium salt] |
| 1 | COc1ccc(C(=O)Nc2ccc(C(=O)Nc3cc4c(cc3S(=O)(=O)O)-c3cc(S(=O)(=O)O)c(NC(=O)c5ccc(NC(=O)c6ccc(OC)cc6OC)cc5OC)cc3S4(=O)=O)c(OC)c2)c(OC)c1 [Example 58, 3,7-Bis-({4-[(2,4-dimethoxy-phenyl)carbonyl-amino]-2-methoxy-phenyl}carbonyl-amino)-5,5-dioxo-5H-5^6-dibenzothiophene-2,8-disulfonic acid, disodium salt] |
| 0.5 | O=C(Nc1cc2c(cc1S(=O)(=O)O)-c1cc(S(=O)(=O)O)c(NC(=O)c3cc4ccccc4o3)cc1S2(=O)=O)c1cc2ccccc2o1 [Example 42, 3,7-Bis[(benzo[b]furan-2-carbonyl)amino]-5,5-dioxo-5H-5^6-dibenzothiophene-2,8-disulfonic acid, disodium salt] |
| 0.37 | COc1ccccc1/C=C/C(=O)Nc1cc2c(cc1S(=O)(=O)O)-c1cc(S(=O)(=O)O)c(NC(=O)/C=C/c3ccccc3OC)cc1S2(=O)=O [Example 34, 3,7-Bis-[3-(2-methoxyphenyl)-acryloylamino]-5,5-dioxo-5H-5^6-dibenzothiophene-2,8-disulfonic acid, disodium salt] |
| 0.8 | O=C(Nc1cc2c(cc1S(=O)(=O)O)-c1cc(S(=O)(=O)O)c(NC(=O)c3ccc4c(c3)C(=O)c3ccccc3C4=O)cc1S2(=O)=O)c1ccc2c(c1)C(=O)c1ccccc1C2=O [Example 55, 3,7-Bis-[9,10-dihydro-9,10-dioxoanthracen-2-yl)carbonyl-amino]-5,5-dioxo-5H-5^6-dibenzothiophene-2,8-disulfonic acid, disodium salt] |

same assay, conditions: inhibition of 125I-VEGF 165 binding to BAE cells

| Structure (SMILES) | Cell Assay VEGF 165 IC50 BAE [µg/mL] |
| --- | --- |
| C=C(C(=O)Nc1cc2sc3cc(Cl)c(C(=O)[O-])cc3c2cc1C(=O)[O-])c1ccc(OC)c(OC)c1Cl.[Na+].[Na+] [Example 14, 3-Chloro-7-[2-(2-chloro-3,4-dimethoxyphenyl)acryloylamino]dibenzothiophene-2,8-dicarboxylic acid, disodium salt] | 2.6 |
